Screening data: PubChem BioAssay, ICCB-Longwood Screening Facility, Harvard Medical School
HCMV UL50-53 inh – disrupts HCMV UL50-UL53 complex binding; HTRF UL50-UL53 interaction, normalized percent inhibition; 190,000 tested, 0.15% active; inhibition, % (test concentration not listed); in the data active = inhibition above about 27%, passing the limit was not always enough
GIV-Gai inh – inhibitors of GIV GBA-motif binding to rat Galpha-i3; P08753; Galpha-i3/FITC-GIV peptide fluorescence polarization, 90 min; hits give low values; scaled: aluminum fluoride 0%, vehicle 100%; percent of control (FP), % (no concentration beside the values); 210,000 compounds, 0.42% hits;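 active means replicate mean at 85% of control or lower, very high polarization wells dropped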;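 further: wells of about 15 µL received 100 nL stock; the first replicate is given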
Of the large screens only hits and unclear results are named; the others gave an inactive call. This is a sample that favours compounds with a hit; in the whole collection about 0.46% have one here.

Cc1ccc(NC(=O)Nc2ccccc2OCc2cc(=O)n3cccc(C)c3n2)cc1C	none (no result: HCMV UL50-53 inh)
O=C(CN1C(=O)S/C(=C/c2ccc(N3CCCCCC3)o2)C1=O)N1CCCCCC1	none (no result: GIV-Gai inh)
COC(=O)C(C)N1C(=O)S/C(=C/c2ccc(N3CCCCCC3)o2)C1=O (stereo not given)	GIV-Gai inh -14.8
COc1cc(CN2CCC(N3CCN(C)CC3)CC2)cc(OC)c1OC	none
CCCSc1nc2cc(C)c(C)cc2n1CC(O)CO (stereo not given)	none (no result: GIV-Gai inh)
Cc1cc(C)c2cc3c(cc2n1)CCN3CC(O)CO (stereo not given)	GIV-Gai inh -26.4
Cc1oc2c(F)c(F)c(F)c(F)c2c1C(=O)O	none (no result: GIV-Gai inh)
S=c1[nH]nc(-c2cccs2)n1C1CCc2ccccc21 (stereo not given)	none
CCOc1ccc(NC(=O)Nc2cccc(OCc3cc(=O)n4cc(Cl)ccc4n3)c2)cc1	none (no result: HCMV UL50-53 inh)
Cc1ccc2nc(COc3ccc(NC(=O)Nc4ccc(Cl)cc4)cc3)cc(=O)n2c1	GIV-Gai inh 85.4 (no result: HCMV UL50-53 inh)
COC(=O)c1cccc(-c2ccc(/C=C3\Sc4ccccc4C3=O)o2)c1	none
O=C(O)c1cccc(-c2ccc(/C=C3\Sc4ccccc4C3=O)o2)c1	GIV-Gai inh -72.6
O=C(O)c1ccc(-c2ccc(/C=C3\Sc4ccccc4C3=O)o2)cc1	GIV-Gai inh -10.5 (no result: HCMV UL50-53 inh)
CCOC(=O)c1ccc(-c2ccc(/C=C3\Sc4ccccc4C3=O)o2)cc1	none
O=C(Nc1nnc(-c2ccc(Cl)cc2)o1)C1CC1	none
N#CCSc1nnc(CSc2nc3ccccc3s2)n1Cc1ccccc1	none (no result: GIV-Gai inh)
CCOc1ccc(-c2csc(NC(=O)Cc3ccccc3)n2)cc1	none (no result: GIV-Gai inh)
O=C(C1COc2cc(S(=O)(=O)N3CCCC3)ccc2O1)N1CCCC1 (stereo not given)	none
COCCCNc1c2c3c(cccc3n(C)c1=O)C(=O)c1ccccc1-2	GIV-Gai inh -62.4 (no result: HCMV UL50-53 inh)
CC(=O)Nc1c2c3c(cccc3n(C)c1=O)C(=O)c1ccccc1-2	none (no result: HCMV UL50-53 inh)
CC1C(C#N)=C(N)SC(N)=C1C#N	GIV-Gai inh -20.3
CCCC1C(C#N)=C(N)SC(N)=C1C#N	none (no result: GIV-Gai inh)
O=C(Nc1cccnc1Cl)c1nn2c(C(F)(F)F)cc(-c3ccco3)nc2c1Cl	none
Cc1nc2c3cc(F)ccc3n(CCN3CCOCC3)c2s1	none
CCn1c2ccc(C)cc2c2nc(C)sc21	HCMV UL50-53 inh 53.6
COC(=O)c1ccc(N2C(=O)/C(=C/c3ccc(Cl)cc3)C=C2c2ccccc2)cc1	none (no result: HCMV UL50-53 inh)
Cc1ccc(C(=O)OC2=CC(=O)c3ccccc3C2=O)cc1	GIV-Gai inh 83.9
Cc1ccc(C(=O)OC2=C(c3ccccc3)C(=O)c3ccccc3C2=O)cc1	none (no result: HCMV UL50-53 inh)
CNc1nc2ccccn2c(=O)c1/C=C1\SC(=S)N(C)C1=O	none (no result: HCMV UL50-53 inh)
Cc1ccc2nc(Sc3ccccc3)c(/C=C3\SC(=S)N(C)C3=O)c(=O)n2c1	GIV-Gai inh -36.2 (no result: HCMV UL50-53 inh)
CC1=NCC(=O)Nc2cc3c(cc21)OCCO3	none
c1ccc(-c2nc3nc(-c4ccccc4)c(-c4ccccc4)n3nc2-c2ccccc2)cc1	GIV-Gai inh -30.6 (no result: HCMV UL50-53 inh)
Cc1nc2nc(-c3ccccc3)c(-c3ccccc3)n2nc1C	none (no result: HCMV UL50-53 inh)
CC(=O)N[C@H]1[C@H](Oc2nc3ccccc3o2)O[C@H](CO)[C@@H](O)[C@@H]1O	none
O=C(NCC1CCCO1)c1cc2c(s1)-c1ccccc1OC2 (stereo not given)	none (no result: HCMV UL50-53 inh)
O=C(NCC1CCCO1)c1cc(-c2ccccc2)c(N2CCCCC2)s1 (stereo not given)	HCMV UL50-53 inh 35.4
CCc1ccc(-c2[nH]nc3c2C(c2ccc(OC)cc2)C2=C(CC(C)(C)CC2=O)N3)cc1 (stereo not given)	none
NNC(=O)COc1c(Br)cc(Br)c2cccnc12	none (no result: GIV-Gai inh)
Nc1c(Br)cc(Br)c2cccnc12	HCMV UL50-53 inh 57.6
CCCOC(=O)c1cc(-c2ccc(/C=C3\C(=O)N(c4cccc(C(=O)O)c4)N=C3C)o2)ccc1Cl	none
O=C(NCc1ccccn1)C1CCCN(c2ncnc3c2oc2ccccc23)C1 (stereo not given)	none (no result: HCMV UL50-53 inh)
O=c1[nH]nc(SCc2cccc3ccccc23)c(=O)[nH]1	GIV-Gai inh 84.9
O=c1[nH]nc(SCc2ccccc2)c(=O)[nH]1	none
FC(F)(F)c1cccc(NC(=S)N2CCCCC2)c1	none
CCCN1C(=O)/C(=C/c2ccc(-c3cccc(C(F)(F)F)c3)o2)NC1=S	none
CCCN1C(=O)/C(=C/c2ccc(-c3ccc(Br)cc3)o2)NC1=S	GIV-Gai inh -83.0
CC(Sc1nc2ncccc2[nH]1)C(=O)Nc1ccc(F)cc1 (stereo not given)	none
CCSC1=N/C(=C\c2ccc(N(C)C)cc2)C(=O)S1	GIV-Gai inh 27.7
CCSC1=N/C(=C\c2ccc(C(=O)O)cc2)C(=O)S1	none (no result: HCMV UL50-53 inh)
COc1ccc(C2CC(=O)c3cnc4c(-c5ccc(Cl)cc5)c(C)nn4c3C2)c(OC)c1 (stereo not given)	none
Cc1nc(C(F)(F)F)ccc1C(=O)NCc1nc(-c2ccc(C(F)(F)F)cc2)no1	none
Cc1ccc(/C=C2/SC(=S)N(c3ccc(S(N)(=O)=O)cc3)C2=O)o1	none (no result: GIV-Gai inh)
Cc1ccc(/C=C2\SC(=O)NC2=S)o1	GIV-Gai inh 46.3
c1ccc2sc(CCc3nc4ccccc4s3)nc2c1	none (no result: GIV-Gai inh)
N/C(Cc1nc2ccccc2s1)=N\O	HCMV UL50-53 inh 51.8
O=C(O)CCN1CCN(C2CCCCC2)CC1	none
O=C(Nc1nc2n(n1)C(c1ccccc1)C=C(c1ccccc1)N2)c1ccco1 (stereo not given)	none
O=C(O)CCC(=O)Nc1nc2n(n1)C(c1ccccc1)C=C(c1ccccc1)N2 (stereo not given)	GIV-Gai inh 83.2
CSCCC(=O)Nc1ccc(Oc2cccc(C)c2)cc1	none (no result: GIV-Gai inh)
Cc1ccc(S(=O)(=O)N(CCc2ccccn2)c2ccc(C(C)C)cc2)cc1	none
Cc1nn(-c2ccc3nnc(C)n3n2)c(C)c1CCC(=O)NC1CCCCC1	none (no result: HCMV UL50-53 inh)
COc1ccc(Nc2nc(SC)nc(-c3ccccc3)c2C#N)cc1OC	none
CSc1nc(Nc2cccc(C)c2)c(C#N)c(-c2ccccc2)n1	HCMV UL50-53 inh 48.4
CC(C(=O)NCC1(c2ccccc2)CCOCC1)N1CCCCC1 (stereo not given)	none
CC(Sc1nc2c([nH]1)c(=O)n(C)c(=O)n2C)C(=O)O (stereo not given)	GIV-Gai inh 85.0
Cn1c(=O)c2[nH]c(SCC(=O)C(C)(C)C)nc2n(C)c1=O	none (no result: GIV-Gai inh)
CCn1c(SC)nnc1C1CCN(C(=O)NC2CCCCC2)CC1	none
CN1c2ccccc2Oc2nnc(Cl)cc21	HCMV UL50-53 inh 104.8
CN1c2ccccc2Oc2nnc(N3CCN(Cc4ccccc4)CC3)cc21	none
CC1(C)COC(O)(C(F)(F)F)CC1=O (stereo not given)	none (no result: GIV-Gai inh)
Cc1ccccc1-c1nc2c3c(C)c(C)n(Cc4ccccc4)c3ncn2n1	none
N#CC(C#N)C(C#N)(C#N)C1CCCC1=O (stereo not given)	GIV-Gai inh 68.3
O=C1C(=O)N(CCN2CCOCC2)C(c2ccc(F)cc2)/C1=C(\O)c1ccccc1 (stereo not given)	none (no result: HCMV UL50-53 inh)
CCOc1ccccc1C1C(C#N)=C(N)SC(N)=C1C#N	GIV-Gai inh -78.3
CCc1ccc(C2C(C#N)=C(N)SC(N)=C2C#N)cc1	none (no result: GIV-Gai inh)
CC1CCCC(C)N1C(=O)Cn1cnc(NC(=O)c2cc(-c3ccc(F)cc3)no2)n1 (stereo not given)	none
CN(C)/C=C1\SC(=S)N(c2ccc(Br)cc2)C1=O	GIV-Gai inh -65.5
Cc1c(N2C(=O)/C(=C/c3ccc(Br)cc3)SC2=S)c(=O)n(-c2ccccc2)n1C	none (no result: HCMV UL50-53 inh)
COc1ccc(N2CCN(c3nc(Nc4ccc(NC(C)=O)cc4)nc(N4CCOCC4)n3)CC2)cc1	none (no result: HCMV UL50-53 inh)
